From patent US12527838B2, “Combination therapies comprising an agent that blocks the interaction between CD47 and SIRPα for treating gastric or gastroesphageal junction cancel” (ALX Oncology Inc., priority 2019, dated 2026) come the findings set out here.

pKd: −log10 of the molar value.

For orientation: pKd means the Kd on a negative log10 scale, so that one unit is a factor of ten. The EC50 is the midpoint of the concentration-response curve. A higher EC50 goes with a less potent agent.

Test [1] addresses T1, hCD47 (Homo sapiens, UniProt Q08722). The experiment in a line: In vitro receptor occupancy assay. The class given is binding. The following applies: at a concentration of ˜1 nM; FIG. 8A. Here is the method:
In vitro receptor occupancy assays were performed to assess the binding of Drug A, F59/magrolimab, TTI-621, and TTI-622 to hCD47. […] F59/magrolimab is a therapeutic anti-CD47 antibody comprising a human IgG4 Fc domain with WT effector function. TTI-621 is a therapeutic fusion polypeptide comprising the CD47 binding domain of human SIRPα linked to a human IgG1 Fc domain with WT effector function. TTI-622 is a therapeutic fusion polypeptide comprising the CD47 binding domain of human SIRPα linked to a to a human IgG4 Fc domain with WT effector function.

Test [2] has as its target T1, hCD47. The experiment in a line: Affinity for hCD47. The class given is binding. The following applies: Table D.
For test [3], the target named is T2, interaction between hSIRPα and hCD47 (Homo sapiens, UniProt Q08722).
T2 construct: purchased DiscoverX
Nature of the test: PathHunter SIRPα Signaling Bioassay. Type of test: cell-based. The text has this:
A validated SIRPα signaling assay (PathHunter SIRPα Signaling Bioassay from DiscoverX) was used to assess the degree to which Drug A, F59/magrolimab, TTI-621, and TTI-622 inhibit the interaction between hSIRPα and hCD47.

Test [4] relates to MC38 m/h HER2 tumors. Nature of the test: MC38 m/h HER2 colon tumor model. The class given is in vivo, C57BL/6 mice. The following applies: Drug A 30 mg/kg 2q10d, anti-PDL1 antibody 1 mg/kg 3q5d, trastuzumab 30 mg/kg 3q5d, IP. Here is the method: MC38 m/h HER2 cells were generated by infecting MC38 murine colon adenocarcinoma cells with a lentivirus vector encoding a chimera of mouse and human HER2 transmembrane and extracellular domains. MC38 m/h HER2 cells were maintained in DMEM (Thermo Fisher Scientific 11965092) supplemented with 10% FBS, 1% Penicillin-Streptomycin, 1% GlutaMAX and 1 mM Sodium Pyruvate (Thermo Fisher Scientific 11360070) at 37° C., 5% CO2 incubator. All tissue culture was performed under aseptic conditions.
Prior to implantation, a master cell bank of each cell line was generated to assure that cells used in subsequent experiments were of the same passage number. Cells were harvested and washed two times in 50 mL cold PBS (Life Technologies 10010072). After the final wash, cells were resuspended in PBS or RPMI at 5×10^6 cells/mL for MC38 m/h HER2 cell line. 100 μL of cell suspension were subcutaneously injected into the right flank of C57BL/6 mice for MC38 m/h HER2. When tumor size reached an average of 65-69 mm^3 for MC38 m/h HER2 tumors, the animals were randomized into 8 groups of 10 mice. […]
Tumor volume (mm^3) using Mitutoyo Digital Caliper (Mitutoyo America, Aurora, Illinois) and body weights were recorded two or three times per week. […] Tumor volume is calculated ([length×{width×width}]×0.5=volume in mm^3). Statistical analysis and p values were calculated using GraphPad Prism Software.

Regarding “F59/magrolimab: therapeutic anti-CD47 antibody comprising a human IgG4 Fc domain with WT effector function”, in test [1], the receptor occupancy entry is reported as “about 90%”. In test [2], this substance had a pKd of 8.15. The concentration giving a half-maximal response (EC50) in test [3] (Table E) worked out at 0.0744 µg/mL. Moreover, the “inhibition of SIRPα signaling” value in test [3] (at a concentration of 1 nM, FIG. 8B) is “about 80%”.

Consider “trastuzumab: anti-HER2 antibody (CAS Registry No. 180288-69-1)”, for which the tumor growth entry in test [4] was “had no effect on tumor growth”.
